Reference: paper PMC10698161, “Investigation of monoclonal antibody CSX-1004 for fentanyl overdose” (2023)
Several values for one entry are separate records, joined by “and”; a condition that tells them apart may be missing. Identical values can stand only once.

Test system: CSX-1004
Test: Competitive SPR assay (CSX-1004 pre-incubated with compound, fentanyl-BSA coated sensor chip)
Conditions: for Response (RU): repeats 1-3
[1] = 10 µM compound, batch 2 (No Compound Control 132.47-141.98 RU)
[2] = 30 µM compound, batch 1 (No Compound Control 74.33-81.4 RU)
[3] = 20 µM compound, batch 1 (No Compound Control 74.33-81.4 RU)

| Molecule | CSX-1004 cross-reactivity (in words) | Response (RU) [1] | other results |
| --- | --- | --- | --- |
| CCC(=O)C(CC(C)N(C)C)(c1ccccc1)c1ccccc1 (stereo not shown) | lacked CSX-1004 cross-reactivity | 129.77 RU and 129.64 RU and 127.04 RU | – |
| O=C1CC[C@@]2(O)[C@H]3Cc4ccc(O)c5c4[C@@]2(CCN3CC2CC2)[C@H]1O5 | lacked CSX-1004 cross-reactivity | – | Response (RU) [2]: 71.11 RU and 66.89 RU and 52.76 RU |
| COc1ccc2c3c1O[C@H]1C(=O)CC[C@H]4[C@@H](C2)N(C)CC[C@]314 | – | – | Response (RU) [3]: 60.4 RU and 57.84 RU and 54.87 RU |
| C=CCN1CC[C@]23c4c5ccc(O)c4O[C@H]2C(=O)CC[C@@]3(O)[C@H]1C5 | lacked CSX-1004 cross-reactivity | – | Response (RU) [2]: 83.33 RU and 69.07 RU and 67.73 RU |
| CO[C@]12CC[C@@]3(C[C@@H]1[C@](C)(O)C(C)(C)C)[C@H]1Cc4ccc(O)c5c4[C@@]3(CCN1)[C@H]2O5 | – | – | Response (RU) (24 µM compound, batch 1 (No Compound Control 74.33-81.4 RU)): 64.04 RU and 53.15 RU and 57.97 RU |
| CN1CC[C@]23c4c5ccc(O)c4O[C@H]2C(=O)CC[C@H]3[C@H]1C5 | – | 129.57 RU and 130.31 RU and 129.18 RU | – |
| β-Endorphin | lacked CSX-1004 cross-reactivity | 136.63 RU and 134.21 RU and 136.11 RU | – |
| Leu-Enkephalin | – | 128.82 RU and 128.06 RU and 110.9 RU | – |
| CO[C@]12CC[C@@]3(C[C@@H]1[C@](C)(O)C(C)(C)C)[C@H]1Cc4ccc(O)c5c4[C@@]3(CCN1CC1CC1)[C@H]2O5 | – | – | Response (RU) (21 µM compound, batch 1 (No Compound Control 74.33-81.4 RU)): 65.91 RU and 62.88 RU and 60.49 RU |
| CC(=O)O[C@H]1C=C[C@H]2[C@H]3Cc4ccc(O)c5c4[C@@]2(CCN3C)[C@H]1O5 | – | – | Response (RU) (2 µM compound, batch 1 (No Compound Control 74.33-81.4 RU)): 64.52 RU and 61.08 RU and 59.22 RU |
| COc1ccc2c3c1O[C@H]1[C@@H](O)C=C[C@H]4[C@@H](C2)N(C)CC[C@@]341 | – | 129.19 RU and 127.72 RU and 126.75 RU | – |
| CN1CC[C@]23c4c5ccc(O)c4O[C@H]2C(=O)CC[C@@]3(O)[C@H]1C5 | – | 132.73 RU and 133.43 RU and 130.44 RU | – |
| COc1ccc2c3c1O[C@H]1C(=O)CC[C@@]4(O)[C@@H](C2)N(C)CC[C@]314 | lacked CSX-1004 cross-reactivity | – | Response (RU) [3]: 60.09 RU and 59.65 RU and 54.98 RU |
| Dynorphin A | – | 253.61 RU and 211.28 RU and 187.91 RU | – |
